Measured affinities in a library of Ab-95 light chain variants

All variants were tested on one target, the spike HR2 peptide PDVDLGDISGINAS (SARS-CoV-2).

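Variants in AAYL52 differ from the parent at up to three CDR positions; double and triple changes were sampled at random. AlphaSeq pools MATa yeast showing the antibodies with MATalpha yeast showing the peptide. After mating in shaken culture at 30 °C for 16 h, diploids were selected and their barcode pairs sequenced. Scores were corrected for input abundance and mapped to Kd with protein pairs of known affinity run in the same pool. The assay was run in three technical replicates.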

Parent: Ab-95, a human scFv built as VH, the linker GGGGSGGGGSGGGGS, VL. Only the CDRs of the light chain vary.
VH: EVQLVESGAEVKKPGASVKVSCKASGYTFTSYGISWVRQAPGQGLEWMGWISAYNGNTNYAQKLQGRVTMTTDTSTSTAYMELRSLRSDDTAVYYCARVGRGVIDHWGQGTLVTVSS
VL: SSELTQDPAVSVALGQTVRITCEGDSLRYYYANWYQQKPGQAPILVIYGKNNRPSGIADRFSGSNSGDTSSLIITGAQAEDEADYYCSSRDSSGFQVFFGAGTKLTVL

Substitutions are numbered in sequence along the VL above, starting at 1 (not Kabat).
Affinities are written as log10 Kd with Kd in nM; a lower number is a better binder.
A mean of the replicates is given; it leaves out those without a signal.
Where no diploid with the target was found in that replicate, the entry reads "nd": below detection, most likely a poor binder, though not proof of it.

changes,"log10 Kd, replicates","log10 Kd (nM), mean",control signals
K50A S88A R90G,3.72 2.73 2.38,2.94,7 of 9 (3.72)
L27P G49P D91P,nd 3.73 4.25,3.99,3 of 9 (4.18)
N52K S55W S93W,4.57 3.56 nd,4.06,0 of 9
N51K N52M F95M,2.98 2.57 3.23,2.92,2 of 9 (3.90)
E23R A32I R90C,5.45 nd nd,5.45,2 of 9 (4.76)
N51I R90L S92A,3.19 4.90 nd,4.04,1 of 9 (2.89)
Y29R A32S K50W,4.53 nd 4.04,4.28,3 of 9 (4.08)
N51Q Q96M,3.15 3.12 4.00,3.42,2 of 9 (5.08)
N51K G94K V97E,nd nd nd,nd,2 of 9 (4.12)
G24F R90H D91I,4.39 5.35 nd,4.87,3 of 9 (4.14)
Y31M R90F D91N,nd 3.95 nd,3.95,1 of 9 (3.21)
A32G K50V Q96I,nd nd 3.97,3.97,1 of 9 (4.33)
G24M P54W R90V,3.67 3.87 nd,3.77,4 of 9 (4.26)
N33D D91L S93M,nd 3.58 3.32,3.45,3 of 9 (4.08)
E23M G24M A32V,3.18 2.80 3.17,3.05,6 of 9 (3.76)
L27P Y31K D91W,3.55 4.49 2.14,3.39,1 of 9 (3.30)
L27E G94H Q96A,4.44 5.07 nd,4.76,1 of 9 (3.94)
A32R K50Q S92R,3.38 4.03 3.23,3.55,2 of 9 (4.44)
N52L P54F D91A,nd 2.81 2.76,2.78,1 of 9 (4.09)
D25S R28M N52A,2.79 2.61 2.44,2.61,4 of 9 (4.67)
N51E G94S,3.15 3.70 2.34,3.06,7 of 9 (3.83)
G24E G94S V97Y,4.79 nd nd,4.79,2 of 9 (4.15)
R28M G49L S93D,nd nd nd,nd,3 of 9 (3.64)
G49H F95D Q96E,3.56 5.20 3.17,3.97,2 of 9 (3.67)
Y29D A32N,5.66 nd nd,5.66,2 of 9 (4.49)
D25W S88Q F98Q,nd nd nd,nd,1 of 9 (3.80)
G24P R28K A32E,3.20 2.96 2.90,3.02,1 of 9 (4.33)
E23P S93P V97I,3.84 3.22 nd,3.53,2 of 9 (3.42)
Y31H R53S R90H,nd nd nd,nd,2 of 9 (4.24)
G49K P54M Q96I,nd 4.88 nd,4.88,2 of 9 (3.56)
N33Y S89H R90K,nd nd nd,nd,1 of 9 (3.93)
Y31Q N33F,nd 4.81 nd,4.81,3 of 9 (3.98)
S26D N51K N52P,nd nd nd,nd,4 of 9 (3.86)
R28N Y29G S55E,0.74 0.71 0.06,0.50,5 of 9 (4.12)
L27M N51E S93W,nd nd nd,nd,1 of 9 (4.67)
R28M Y29D Y30K,1.30 1.26 0.90,1.15,1 of 9 (4.02)
D25R N52R S55M,3.73 2.66 3.91,3.43,4 of 9 (3.72)

5 of these entries, quoted again:

| changes | log10 Kd, replicates | log10 Kd (nM), mean | control signals |
|---|---|---|---|
| E23P S93P V97I | 3.84 3.22 nd | 3.53 | 2 of 9 (3.42) |
| Y31H R53S R90H | nd nd nd | nd | 2 of 9 (4.24) |
| N51K G94K V97E | nd nd nd | nd | 2 of 9 (4.12) |
| E23R A32I R90C | 5.45 nd nd | 5.45 | 2 of 9 (4.76) |
| L27P G49P D91P | nd 3.73 4.25 | 3.99 | 3 of 9 (4.18) |

Parent in this assay: reference entry 2.31, copy in this library 2.25.
Three control strains display no target. For library AAYL52, 28% of the pairings with them gave a signal, with a median of 3.91 and one signal in twenty below 2.90, so weak values seen in few replicates may be background. The control count says in how many pairings with the empty strains this scFv gave a signal, with their mean in brackets.

Reference: Engelhart et al. 2022, doi:10.1038/s41597-022-01779-4. File: FLAb, binding data.